Chains of the proteins cited; added tags and fusions are not shown. Residues count along the entry.
UniProt P10980, whole entry, looked up: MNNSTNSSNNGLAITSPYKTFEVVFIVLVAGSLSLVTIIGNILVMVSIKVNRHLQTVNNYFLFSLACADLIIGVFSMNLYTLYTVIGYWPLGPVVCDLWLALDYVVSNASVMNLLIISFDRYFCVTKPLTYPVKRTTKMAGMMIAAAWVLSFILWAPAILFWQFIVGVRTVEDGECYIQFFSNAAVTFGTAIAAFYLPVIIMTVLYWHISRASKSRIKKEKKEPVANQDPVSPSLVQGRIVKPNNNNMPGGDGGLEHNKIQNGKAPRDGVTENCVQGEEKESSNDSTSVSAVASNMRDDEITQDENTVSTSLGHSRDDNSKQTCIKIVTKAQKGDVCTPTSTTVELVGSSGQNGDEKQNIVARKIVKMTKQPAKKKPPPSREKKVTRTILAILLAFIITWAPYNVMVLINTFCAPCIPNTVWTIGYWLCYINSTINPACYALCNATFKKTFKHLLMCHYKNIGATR
UniProt Q8WMX0, 1-139: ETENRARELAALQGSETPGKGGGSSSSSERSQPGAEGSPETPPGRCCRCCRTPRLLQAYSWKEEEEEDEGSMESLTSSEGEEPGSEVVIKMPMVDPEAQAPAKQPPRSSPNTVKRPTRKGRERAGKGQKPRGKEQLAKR
UniProt P08172, whole entry, looked up: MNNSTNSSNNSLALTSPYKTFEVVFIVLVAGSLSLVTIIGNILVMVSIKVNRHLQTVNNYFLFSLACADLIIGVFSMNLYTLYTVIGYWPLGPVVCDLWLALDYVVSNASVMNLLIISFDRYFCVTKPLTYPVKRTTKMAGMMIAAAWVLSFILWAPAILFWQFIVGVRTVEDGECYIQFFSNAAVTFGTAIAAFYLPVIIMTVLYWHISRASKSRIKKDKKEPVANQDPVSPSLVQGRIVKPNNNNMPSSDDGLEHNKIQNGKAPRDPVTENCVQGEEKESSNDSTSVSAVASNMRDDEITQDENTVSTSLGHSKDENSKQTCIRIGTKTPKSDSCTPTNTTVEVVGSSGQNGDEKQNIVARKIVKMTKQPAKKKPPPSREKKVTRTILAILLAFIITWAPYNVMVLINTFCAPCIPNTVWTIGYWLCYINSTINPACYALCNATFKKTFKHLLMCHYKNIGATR

In ChEMBL document CHEMBL1124523, “Binary antidotes for organophosphate poisoning: aprophen analogues that are both antimuscarinics and carbamates” (1989):

Tests used:
[1] = biological target: T1, Muscarinic acetylcholine receptor M2 (Rattus norvegicus, UniProt P10980); assay: Inhibition of carbachol-induced release of alpha-amylase from pancreatic acinar cells from that of rat ileum contained the M2 receptor subtypes; NA is not active
[2] = biological target: T2, Muscarinic acetylcholine receptor M1 (Bos taurus, UniProt Q8WMX0); assay: Inhibition of [3H]NMS binding to cerebral cortex membranes which contain predominantly the Muscarinic acetylcholine receptor M1 subtypes; marginal active
[3] = biological target: T1, Muscarinic acetylcholine receptor M2; assay: Binding affinity was determined from the inhibition of contraction of guinea pig ileum which has Muscarinic acetylcholine receptor M2 subtype.
[4] = biological target: T2, Muscarinic acetylcholine receptor M1; assay: Inhibition of [3H]NMS binding to cerebral cortex membranes which contain predominantly the Muscarinic acetylcholine receptor M1 subtypes
[5] = biological target: T3, Muscarinic acetylcholine receptor M2 (Homo sapiens, UniProt P08172); assay: Antimuscarinic activity on the acetylcholine-induced inhibition of contraction of guinea pig ileum which has Muscarinic acetylcholine receptor M2 subtype.
[6] = biological target: T3, Muscarinic acetylcholine receptor M2; assay: Antimuscarinic activity on the acetylcholine-induced inhibition of contraction of guinea pig ileum which has M2 muscarinic receptor subtype.
[7] = biological target: T1, Muscarinic acetylcholine receptor M2; assay: Inhibition of carbachol-induced release of alpha-amylase from pancreatic acinar cells from that of rat ileum contained the M2 receptor subtypes

Row | Compound | Ki [1] | Ki [2] | Ki [3] | Ki [4] | pA2 [5] | pA2 [6] | Ki [7]
1 | CCN(CC)CCOC(=O)C(C)(c1ccc(OC(=O)N(C)C)cc1)c1ccc(OC(=O)N(C)C)cc1 | Not Active | Partially active | – | – | – | – | –
2 | CCN(CC)CCOC(=O)C(C)(c1ccccc1)c1ccc(OC(=O)N(C)C)cc1 (stereo not drawn) | – | – | 42 nM | 150 nM | 7.1 | – | –
3 | CCN(CC)CCOC(=O)C(C)(c1ccccc1)c1ccc(OC(=O)NC)cc1 (stereo not drawn) | – | – | 2 nM | 26 nM | 7.3 | – | –
4 | CCN(CC)CCOC(=O)C(C)(c1ccccc1)c1ccc(O)cc1 (stereo not drawn) | – | – | – | 100 nM | – | 7.2 | 5.6 nM
5 | CCN(CC)CCOC(=O)C(C)(c1ccc(O)cc1)c1ccc(O)cc1 | – | – | – | 2100 nM | – | 5.7 | 4900 nM
6 | CCN(CC)CCOC(=O)C(C)(c1ccc(O)cc1)c1ccc(OC(=O)N(C)C)cc1 (stereo not drawn) | – | – | – | 3400 nM | – | 5.5 | 2400 nM
7 | CCN(CC)CCOC(=O)C(C)(c1ccccc1)c1ccccc1 | – | – | – | – | – | – | 1.7 nM
